Consider one molecule from ChEMBL document CHEMBL4742393, “Compounds for treatment of hypoproliferative disorders” (2019).

The chains behind the UniProt entries cited, without tags or fusion partners. Where a name states a change or a piece, a line headed by the entry shows the natural chain unless it says otherwise.
UniProt Q9BWU1: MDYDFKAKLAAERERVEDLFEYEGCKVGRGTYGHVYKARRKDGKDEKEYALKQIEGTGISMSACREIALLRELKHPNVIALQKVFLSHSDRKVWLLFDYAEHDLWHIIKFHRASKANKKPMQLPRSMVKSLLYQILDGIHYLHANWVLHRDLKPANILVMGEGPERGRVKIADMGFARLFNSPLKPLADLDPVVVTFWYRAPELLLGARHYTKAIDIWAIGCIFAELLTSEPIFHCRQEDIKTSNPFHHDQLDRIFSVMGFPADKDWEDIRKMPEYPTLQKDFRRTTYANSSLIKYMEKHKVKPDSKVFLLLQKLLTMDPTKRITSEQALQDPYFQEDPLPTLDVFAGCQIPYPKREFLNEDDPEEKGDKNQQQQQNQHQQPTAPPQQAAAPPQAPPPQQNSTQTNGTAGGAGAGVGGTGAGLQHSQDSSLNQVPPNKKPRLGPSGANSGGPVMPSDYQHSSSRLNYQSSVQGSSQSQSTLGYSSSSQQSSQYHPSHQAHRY
UniProt P49336: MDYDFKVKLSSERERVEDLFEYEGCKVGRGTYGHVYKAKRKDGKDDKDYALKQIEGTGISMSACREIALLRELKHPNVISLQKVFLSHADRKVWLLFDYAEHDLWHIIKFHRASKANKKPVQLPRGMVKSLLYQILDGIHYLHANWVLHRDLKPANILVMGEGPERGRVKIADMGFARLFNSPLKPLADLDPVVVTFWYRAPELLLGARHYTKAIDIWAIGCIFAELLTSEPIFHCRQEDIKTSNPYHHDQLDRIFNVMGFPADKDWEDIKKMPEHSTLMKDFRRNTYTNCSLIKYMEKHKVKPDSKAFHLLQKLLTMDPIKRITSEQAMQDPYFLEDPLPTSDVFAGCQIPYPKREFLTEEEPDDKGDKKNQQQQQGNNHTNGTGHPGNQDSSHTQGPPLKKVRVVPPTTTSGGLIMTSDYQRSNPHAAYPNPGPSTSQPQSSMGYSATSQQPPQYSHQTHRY

The target of assay [1] is Cyclin-dependent kinase 19 (Homo sapiens) (UniProt Q9BWU1). Put plainly: Inhibition of CDK19(CDK11) (unknown origin) assessed as residual ligand binding level at 0.5 uM by kinome scan assay relative to control.
Assay [2] concerns the target Cyclin-dependent kinase 8 (Homo sapiens) (UniProt P49336). Description: Inhibition of CDK8 (unknown origin) assessed as residual ligand binding level at 0.5 uM by kinome scan assay relative to control.

Active and inactive are the calls of the source. The calls are words filed in the database; no cut-off is given here.

With `CN(C)C(=O)Cc1ccc(N2CCCN(c3ccnc4sc(C(N)=O)c(N)c34)CC2)cc1`, the inhibition entry in assay [1] and in assay [2] was “Active” throughout.
